Laboratory results: patent publication US7910091B2, “System for trapping flying insects with attractant lures” (Woodstream Corporation, priority 2002, dated 2011)

Key:
[1] = cited from earlier work
mosquitoes = test: Hawaii field test of lactic acid lures in Mosquito Magnet traps, total mosquito catch; assay type: in vivo, Culex quinquefasciatus Aedes albopictus, et al.
Description: (§1) […] Sample vials containing lactic acid impregnated frits were replaced every 2 days to ensure measurement uniformity. Measured release rates were approximately 4.0 mg/hr to 20 mg/hr. Controls were run with a Professional trap device lacking a lactic acid lure. The number of mosquitoes retained in the catch bag of the insect trapping devices was quantitated for test sample and control runs.
(§2) The comparison between lactic acid/CO2 and CO2 only used as lures in Mosquito Magnet® Professional (PRO) and Liberty traps are shown in Table 8.

A. albopictus = test: Hawaii field test of lactic acid lures in Mosquito Magnet traps, A. albopictus catch; assay type: in vivo, Aedes albopictus
Description: as §1, §2

[2] = PRO trap, January 2002, listed as Liquid lactic acid
[3] = Liberty trap, February to March 2002
[4] = PRO trap, February to March 2002
[5] = PRO trap, January 2002, higher release rate

Structure (SMILES) | LD50/oral/mouse [1] [mg/kg] | Ratio (lactic acid/CO2), total catch of mosquitoes (mosquitoes; [2]) | Ratio (lactic acid/CO2), catch of A. Albopictus (A. albopictus; [2]) | Ratio (lactic acid/CO2), total catch of mosquitoes (mosquitoes; [3]) | Ratio (lactic acid/CO2), total catch of mosquitoes (mosquitoes; [4]) | Ratio (lactic acid/Octenol), total catch of mosquitoes (mosquitoes; [4]) | Ratio (lactic acid/CO2), total catch of mosquitoes (mosquitoes; PRO trap, January 2002) | Ratio (lactic acid/CO2), total catch of mosquitoes (mosquitoes; [5]) | Ratio (lactic acid/CO2), catch of A. Albopictus (A. albopictus; [3]) | Ratio (lactic acid/CO2), catch of A. Albopictus (A. albopictus; [4]) | Ratio (lactic acid/Octenol), catch of A. Albopictus (A. albopictus; [4]) | Ratio (lactic acid/CO2), catch of A. Albopictus (A. albopictus; PRO trap, January 2002) | Ratio (lactic acid/CO2), catch of A. Albopictus (A. albopictus; [5])
CC(O)C(=O)O (stereo not drawn) [FCC 88, L(+)-lactic acid, 2-hydroxy-propionic acid] | 4875 | 2.0 | 5.8 | – | – | – | – | – | – | – | – | – | –
CC(O)C(=O)O (stereo not shown) [Solid lactic acid] | – | – | – | 1.6 | 52 | 2.6 | 0.8 | 1.6 | 12.7 | 7 | 4.1 | 6.4 | 5.8
